Sampled rows, rich in hits. Any-hit rate of the full collection: about 2.2%.
Nrf2 activator: activators of Nrf2 (ARE) signaling; Potency, µM (highest dose often 46.1 µM), inactives show at the top dose activation, most hits filed as activators; AID 624171; AREc32 ARE-luciferase reporter (MCF7-derived line), luminescence, 24 h; 0.31% of 410,000 active; also: potency is read from the fitted curve at half-maximal effect; % of control where 0% means no effect; nearly all actives have a fitted effect of over 65% in size
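AREc32 cells carrying an ARE-driven firefly luciferase reporter were seeded at 1000 cells/well in OPTI-MEM with 5% FBS, then exposed to compound for 24 hr at 37 deg C. Luminescence was read with Steady-Glo after 30 min at RT.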
GALK inh: inhibitors of human galactokinase. 0.007% of 270,000 active. P51570. Purified GALK, Kinase-Glo residual ATP luminescence. Potency, µM (series often up to 57.5 µM), for inactives: at the highest dose activity change, negative = inhibition, actives largely listed as inhibitors; also: potency is read from the fitted curve at half-maximal effect; % is scaled to controls: 0 for no effect and ±100 for the full control effect
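5 nM enzyme, 35 uM ATP, 100 uM galactose, 20 mM HEPES pH8.0, 5 mM MgCl2; 1 h RT; residual ATP by Kinase-Glo Plus luminescence, qHTS format.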
A549 viability: A549 cytotoxicity, counter-screen for Nrf2 inhibitors; AID 504648; A549 ARE-Fluc cells, CellTiter-Fluor viability, 18-24 h; 0.16% of 390,000 active; Potency, µM (top dose mostly 46 µM), for inactives: at the top dose activity change, negative = cytotoxicity, usual class: inhibitors; also: potency is read from the fitted curve at half-maximal effect; % is scaled to controls: 0 for no effect and ±100 for the full control effect
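A549 ARE-Fluc cells in 5% FBS OPTI-MEM, 5000 cells/well, rested 2 h then exposed to compounds in concentration-response for 18-24 h at 37 °C. Viability by CellTiter-Fluor fluorescence (Ex 405/Em 525) after 30 min; luciferase luminescence (BugLite, 15 min, RT) read afterwards.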
PI4K2A block: blocks human PI4K2A kinase activity | purified PI4K2A, ADP-Glo luminescence, 1 h; hits give low values | activity change, negative = inhibition, % at 76.9 µM | 0.13% of 420,000 active | AID 1346378; in the data active = activity change below about -50%; inconclusive = mostly about -30% to -49%;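 also: -100% = wells without enzyme as full effect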
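ADP-Glo luminescence measured ADP generated by PI4K2A enzyme (4 ug/mL before mixing) with 1.2 mM PI substrate (pre-mix) and 300 microM ATP (pre-mix). Tris pH7.5 buffer with MgCl2, Triton X-100; 1 h reaction at ambient temperature.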
Nrf2 inh: Nrf2 pathway inhibition; Potency, µM (series often up to 46 µM), without a hit: at the highest dose activity change, negative = inhibition, most hits filed as inhibitors; A549 ARE-Fluc reporter, luciferase luminescence, 18-24 h; 2.1% of 360,000 active; also: potency is read from the fitted curve at half-maximal effect; % is scaled to controls: 0 for no effect and ±100 for the full control effect; nearly all actives have a fitted effect of over 60% in size
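A549 ARE_Fluc cells, 5000/well, 5% FBS OPTI-MEM; compounds in dose-response, 18-24 h at 37 °C/5% CO2; CellTiter-Fluor viability read (Ex 405/Em 525), then BugLite luciferase luminescence = Nrf2 activity.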
miR-21 FLuc: miR-21 reporter, rising signal; HeLa miR-21 FLuc reporter, luciferase, 48 h; Potency, µM (titrated, usually from 38.3 µM), without a hit: top-dose reporter change, positive = more light; AID 2288; 340,000 tested, under 10 active; active = well fitted rising curve with a large enough effect; inconclusive = small, poorly fitted or top-dose-only effect; inactive = no such curve, though single readings can be large or run the other way;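 further: % of control where 0% means no effect; miR-21 action dims this reporter so a rising signal means less miR-21 action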
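HeLa miR-21-FLuc reporter line, endogenous miR-21; 2000 cells/well in DMEM/10% FBS; compound titration up to ~40uM final, 48 h, 37 degree Celsius; luciferase detection reagent, 15 min lysis, CCD luminescence.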
* hit, by the source's call; u = inconclusive; x = no result given. Unless noted, calls follow the shape of the dose curve; as a rule, active = well fitted curve in the direction sought with a large enough effect; inconclusive = small, poorly fitted or top-dose-only effect, or another doubt; inactive = no such curve, though single readings can be large; an effect the other way counts as inactive or inconclusive.

| molecule | Nrf2 activator | GALK inh | A549 viability | PI4K2A block | Nrf2 inh | miR-21 FLuc |
| --- | --- | --- | --- | --- | --- | --- |
| CNC(=S)N1CCN(c2nc(-c3ccc(Cl)cc3)cs2)CC1 | -0.2% | -1.3% | -12.5% | 2.4 | 18.4µM* | 14.1% |
| S=C(NCc1ccco1)N1CCN(c2nc(-c3ccccc3)cs2)CC1 | 3.8% | 8.1% | 4.4% | 3.3 | u | 3.5% |
| Cc1c(C#N)c(NC(=O)CCl)n(Cc2cccs2)c1C | u | 0.8% | u | 20.0 | 14.6µM* | u |
| Cc1c(C#N)c(NC(=O)CCl)n(Cc2ccccc2)c1C | u | 4.8% | -0.7% | 33.7 | -27.9% | u |
| Cc1c(C#N)c(NC(=O)CCl)n(Cc2ccc(F)cc2)c1C | u | -1.5% | -25.4% | 35.3 | 18.4µM* | u |
| CCCCCCn1c(=O)c2c(ncn2C)n(C)c1=O | x | x | x | -0.4 | x | x |
| Cc1nc2cc(-c3cccc(F)c3)nn2c(N2CCN(C(=O)c3ccco3)CC2)c1C | 12.6µM* | 0.7% | -1.2% | -2.1 | 14.0% | -44.8% |
| Cc1nc2cc(-c3cccc(F)c3)nn2c(C)c1CCC(=O)NC(C)CCc1ccco1 (stereo unspecified) | 1.2% | 2.2% | 0.3% | -17.2 | 0.82µM* | u |
| Cc1nc2cc(-c3ccccc3)nn2c(C)c1CCC(=O)N1CCN(c2ccc(F)cc2)CC1 | -2.2% | x | -4.8% | 0.2 | 5.17µM* | 26.9% |
| Oc1cccc(-c2c3nc(c(-c4cccc(O)c4)c4ccc([nH]4)c(-c4cccc(O)c4)c4nc(c(-c5cccc(O)c5)c5ccc2[nH]5)CC4)C=C3)c1 | x | x | x | -23.1 | x | x |
| C=CCN1[C@H](C)COc2cccc(F)c2S1(=O)=O | x | x | x | -1.5 | x | x |
| CCOC(=O)[C@@H]1[C@H]2COc3cc(OC)ccc3[C@H]2N2C(=O)N(c3ccc(C(F)(F)F)cc3)C(=O)[C@]12C | 0.4% | x | -23.0% | -4.2 | 20.6µM* | x |
| CCOC(=O)[C@@H]1[C@H]2COc3cc(OC)ccc3[C@@H]2N2C(=O)N(c3ccc(C(F)(F)F)cc3)C(=O)[C@@]12C | 1.0% | x | -5.3% | -2.2 | 4.8% | 8.0% |
| N#Cc1c(N)nc(N)nc1Nc1ccc(Br)cc1 | 12.6µM* | x | -5.9% | 5.9 | u | -46.4% |
| COc1ccc(C2C(C(=O)Nc3ccc(Cl)c(Cl)c3)CCC(=O)N2c2ccc(OC)cc2)cc1 (stereo unspecified) | x | x | x | -2.2 | x | x |
| O=C(CCl)Nc1cc2[nH]c(=O)[nH]c2cc1Br | u | -7.9% | 23.1µM* | -11.0 | 20.6µM* | u |

Complete entries, looked up by structure. Values in the order: Nrf2 activator, GALK inh, A549 viability, PI4K2A block, Nrf2 inh, miR-21 FLuc
`CCOC(=O)[C@@H]1[C@H]2COc3cc(OC)ccc3[C@@H]2N2C(=O)N(c3ccc(C(F)(F)F)cc3)C(=O)[C@@]12C` reads 1.0%, x, -5.3%, -2.2, 4.8%, 8.0%
`CCOC(=O)[C@@H]1[C@H]2COc3cc(OC)ccc3[C@H]2N2C(=O)N(c3ccc(C(F)(F)F)cc3)C(=O)[C@]12C` reads 0.4%, x, -23.0%, -4.2, 20.6µM*, x

Rewritten field by field: part of the list above
N#Cc1c(N)nc(N)nc1Nc1ccc(Br)cc1
  Nrf2 activator = 12.6µM*
  GALK inh = x
  A549 viability = -5.9%
  PI4K2A block = 5.9
  Nrf2 inh = u
  miR-21 FLuc = -46.4%

COc1ccc(C2C(C(=O)Nc3ccc(Cl)c(Cl)c3)CCC(=O)N2c2ccc(OC)cc2)cc1 (stereo unspecified)
  Nrf2 activator = x
  GALK inh = x
  A549 viability = x
  PI4K2A block = -2.2
  Nrf2 inh = x
  miR-21 FLuc = x

Remaining list, next part.
| molecule | Nrf2 activator | GALK inh | A549 viability | PI4K2A block | Nrf2 inh | miR-21 FLuc |
| --- | --- | --- | --- | --- | --- | --- |
| O=C(CSc1nnc(-c2cccnc2)n1C1CCCCC1)N1CCCC1 | x | x | x | -1.7 | x | x |
| C=CC(=O)Nc1cccc(Oc2ccnc3[nH]ccc23)c1 | 9.0% | x | u | 1.7 | -10.6% | x |
| C=CC(=O)Nc1cccc(Oc2ccnc(Nc3ccc(N4CCN(C)CC4)cc3)n2)c1 | 16.6% | x | 1.64µM* | 3.1 | u | x |
| C=CC(=O)Nc1cccc(N(C)c2ccnc(Nc3ccc(N4CCN(C)CC4)cc3)n2)c1 | 6.0% | x | 1.03µM* | -3.8 | u | x |
| CC1CCc2cc(F)ccc2N1C(=O)CSc1nnc2c(n1)[nH]c1ccc(F)cc12 (stereo unspecified) | 0.2% | -0.9% | u | -0.5 | 20.6µM* | -3.1% |
| CC1CCCCN1C(=O)CSc1nnc2c(n1)[nH]c1ccc(F)cc12 (stereo unspecified) | -1.1% | 6.5% | 3.2% | -24.5 | u | 0.7% |
| CCOc1ccc(C(=O)NCc2cccs2)cc1 | 1.7% | 4.9% | -1.6% | -4.4 | u | -43.3% |
| CCOc1ccc(N(C)S(=O)(=O)c2ccc(C)c(C(=O)NCc3cccs3)c2)cc1 | 0.2% | x | -4.5% | -3.2 | 16.4µM* | x |
| COC(=O)C1CN(Cc2cn(CCOC(C)=O)nn2)CCS(=O)(=O)N1Cc1ccccc1 (stereo unspecified) | x | x | x | -6.8 | x | x |
| OC(c1ccccc1)(C1CCCCC1)C(CN1CCOCC1)c1ccccc1 (stereo unspecified) | 5.5% | -1.7% | 10.8% | -3.9 | -13.2% | 16.9% |

Screening data: PubChem BioAssay, National Center for Advancing Translational Sciences (NCATS)
